# From patent US20250144067A1, “PERSONALIZED STARVATION THERAPY FOR CANCER” (Faeth Therapeutics, Inc., priority 2021, published 2025)
# Counter-ions that a name gives are not always drawn. Like-named read-outs stand apart in the source and are kept apart here.
# Key:
# [1] = tested on: NCI-H292 lung cancer cells; assay: FDA drug screening, complete media vs cholesterol-free media without statin (TABLE 1)
# [2] = tested on: NCI-H292 lung cancer cells; assay: FDA drug screening, complete media vs cholesterol-free media with simvastatin (TABLE 2)
# [3] = NCI-H292 cells, complete media, FDA drug library screen
# [4] = NCI-H292 cells, FDA drug library screen, complete media
compound,measurement,setting,value
C[C@@H]1C[C@H]2[C@@H]3C[C@H](F)C4=CC(=O)C=C[C@]4(C)[C@@]3(F)[C@@H](O)C[C@]2(C)[C@@]1(O)C(=O)CO [Flumethasone],Cholesterol-free,[1],1.224
same,Complete,[1],0.7145
same,Difference,[1],−0.51
same,Cholesterol-free media + simvastatin (0.04 μM),[2],0.5965
same,Complete Media,[2],0.7772
same,Difference,[2],0.18
C[N+](C)(C)C[C@H](O)CC(=O)[O-].Cl [L-Carnitine (hydrochloride)],Complete,"[1]; NCI-H292 cells, complete media",1.167
N[C@@H](CS)C(=O)O [L-Cysteine],Cholesterol-free,"[1]; NCI-H292 cells, cholesterol-free media without statin",0.9453
CCCCCCCCCCCCN1CCCCCC1=O [Laurocapram],Cholesterol-free,"[1]; NCI-H292 cells, cholesterol-free media without statin, FDA drug library screen",0.9447
CCn1cc(C(=O)O)c(=O)c2cc(F)c(N3CCNC(C)C3)c(F)c21 (centres unmarked) [Lomefloxacin (hydrochloride)],Complete,"[1]; NCI-H292 cells, complete media",1.165
CCCCN(CCCC)CC(O)c1cc(Cl)cc2c1-c1ccc(Cl)cc1/C2=C/c1ccc(Cl)cc1 (centres unmarked) [Lumefantrine],Complete,[1]; [3],1.173
CN1CCN2c3ccccc3Cc3ccccc3C2C1 (centres unmarked) [Mianserin (hydrochloride)],Complete,[1]; [3],1.175
CCCOc1ccc(S(=O)(=O)N2CCN(CCO)CC2)cc1-c1nc2c(CCC)cn(CC)c2c(=O)[nH]1 [Mirodenafil (dihydrochloride)],Complete,"[1]; NCI-H292 cells, complete media",1.17
OC(CNCC(O)C1CCc2cc(F)ccc2O1)C1CCc2cc(F)ccc2O1 (centres unmarked) [Nebivolol (hydrochloride)],Complete,[1]; [3],1.174
CC(=O)Oc1ccccc1C(=O)Nc1ncc([N+](=O)[O-])s1 [Nitazoxanide],Complete,[1]; [3],1.149
CC(C)C[C@@H](N)C(=O)N[C@H]1C(=O)N[C@@H](CC(N)=O)C(=O)N[C@H]2C(=O)N[C@H]3C(=O)N[C@H](C(=O)N[C@H](C(=O)O)c4cc(O)cc(O)c4-c4cc3ccc4O)[C@H](O)c3ccc(c(Cl)c3)Oc3cc2cc(c3O[C@@H]2O[C@H](CO)[C@@H](O)[C@H](O)[C@H]2O[C@H]2C[C@](C)(N)[C@H](O)[C@H](C)O2)Oc2ccc(cc2Cl)[C@H]1O.Cl [Norvancomycin (hydrochloride)],Complete,[1]; [4],1.173
CCCCC1C(=O)N(c2ccccc2)N(c2ccc(O)cc2)C1=O (centres unmarked) [Oxyphenbutazone],Complete,[1]; [4],1.171
O=C1c2ccccc2C(=O)C1c1ccccc1 [Phenindione],Complete,[1]; [3],1.152
CCc1ccc(CCOc2ccc(CC3SC(=O)NC3=O)cc2)nc1 (centres unmarked) [Pioglitazone],Complete,[1]; [3],1.169
CNCCCC1c2ccccc2C=Cc2ccccc21 [Protriptyline (hydrochloride)],Complete,"[1]; NCI-H292 cells, complete media",1.153
Oc1ccc(C=Cc2cc(O)cc(O)c2)cc1 [Resveratrol],Complete,[1]; [3],1.166
CS(=O)(=O)c1ccc(C2=C(c3ccccc3)C(=O)OC2)cc1 [Rofecoxib],Complete,[1]; [3],1.149
same,Complete Media,[2]; [4],1.147
C[C@@H](O)[C@H]1C(=O)N2C(C(=O)OCOC(=O)C(C)(C)C)=C(SC3CN(C4=NCCS4)C3)[C@H](C)[C@H]12 [Tebipenem pivoxil],Cholesterol-free,[1],1.001
same,Complete,[1],0.9986
same,Difference,[1],0.00
same,Cholesterol-free media + simvastatin (0.04 μM),[2],0.7368
same,Complete Media,[2],0.8356
same,Difference,[2],0.10
CS(=O)(=O)c1ccc(C(=O)Nc2ccc(Cl)c(-c3ccccn3)c2)c(Cl)c1 [Vismodegib],Complete,[1]; [3],1.174
COc1ccc(/C=C/C(=O)Nc2ccccc2C(=O)O)cc1OC [trans-Tranilast],Cholesterol-free,"[1]; NCI-H292 cells, FDA drug library screen, cholesterol-free media without statin",0.9454
Methylergometrine (maleate),Complete,"[1]; NCI-H292 cells, complete media",0.7152
